# Assay results reported in PubChem BioAssay AID743238 (Broad Institute, 2013).
# The entries are a selection whose mix differs from that of the whole data set. Some salts or complexes appear as unconnected parts, following the source record. Activity calls are given as the source filed them.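 The calls were made as follows: active = mean normalized replicate activation at least 10% and every replicate at or above 10%; inconclusive = only one of the two criteria met; inactive = mean below 10% and not all replicates reach 10%.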
# Test: activators of inactive X chromosome reactivation, primary screen, imaging, XiGFP fibroblasts, GFP high-content imaging, set 2 (AID 743238);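 also: 0% = median of on-plate neutral control wells and 100% = ellipticine 6 µM median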
# Settings: XiGFP mouse fibroblasts, % GFP-positive cells imaging, 3 d; at 7.58 µM; stronger effect = higher value; cells co-treated with 5-aza-dC sensitizer; scaled so ellipticine positive control = 100%
# In short: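 System: 68-5-11 XiGFP fibroblast line | Buffer or medium: DMEM containing 5-aza-dC | Compound: Single point | Times: Compounds 3 days, fix/stain 15 min at room temperature | Benchmarks: Positive control ellipticine, 6 µM final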
row,SMILES,activation
1,CCOC(=O)c1ccc(NP(C)(=O)Oc2ccc(Cl)cc2)cc1 (stereo not given),inactive: -0.0505%
2,Nc1ccc2c(ccc3cccnc32)n1.O=[N+]([O-])c1cc([N+](=O)[O-])c(O)c([N+](=O)[O-])c1,inactive: 0.0065%
3,CCc1ccc(OP(C)(=O)Nc2cccnc2)cc1 (stereo not given),inactive: 0.115%
4,O=C(OCCCN1CCCC1)C(O)(c1ccccc1)C1CCCCC1 (stereo not given),inactive: -0.0795%
5,COc1ccc(OP(C)(=O)Nc2ccc(Br)cc2)cc1 (stereo not given),inactive: 0%
6,CN(C)C(=O)c1c([N+](=O)[O-])cc([N+](=O)[O-])cc1[N+](=O)[O-],inactive: 1.01%
7,COc1ccccc1OP(C)(=O)Nc1ccccc1Br (stereo not given),inactive: 0.0955%
8,COc1ccccc1OP(C)(=O)Nc1ccc(Br)cc1 (stereo not given),inactive: -0.134%
9,O=[N+]([O-])c1cc([N+](=O)[O-])c(Nc2ccccn2)c([N+](=O)[O-])c1,inactive: 0.548%
10,COc1ccc(OP(C)(=O)Nc2ccccc2Br)cc1 (stereo not given),inactive: -0.148%
11,O=C1C(O)=C([N+](=O)[O-])C(=O)C(O)=C1[N+](=O)[O-],inactive: 0.129%
12,Cc1cc(C)cc(OP(C)(=O)Nc2cccc(C(F)(F)F)c2)c1 (stereo not given),inactive: -0.0085%
13,CP(=O)(OCCOc1ccccc1)OCCOc1ccccc1,inactive: 0.151%
14,CP(=O)(Nc1ccc(Cl)cc1Cl)Oc1ccccc1 (stereo not given),inactive: -0.0075%
15,CCCCCCCCCCCCCCCC1C[N+](C)(C)CCOP(C)(=O)O1 (stereo not given),inactive: -0.0835%
16,COc1ccc(OP(C)(=O)Nc2ccc(SC(F)(F)F)cc2)cc1 (stereo not given),inactive: 0%
17,CCOC(=O)c1ccc(NP(C)(=O)Oc2ccc(F)cc2)cc1 (stereo not given),inactive: 0.0325%
18,CCN(CC)CCCNc1ccccc1[N+](=O)[O-].O=[N+]([O-])c1cc([N+](=O)[O-])c(O)c([N+](=O)[O-])c1,inactive: -0.215%
19,O=[N+]([O-])c1cc([N+](=O)[O-])c(OC2CCCCC2O)c([N+](=O)[O-])c1 (stereo not given),inactive: -0.0385%
20,CCCCCOc1ccc(NP(C)(=O)Oc2ccc(Cl)cc2Cl)cc1 (stereo not given),inactive: 0.0935%
21,Cc1c([N+](=O)[O-])cc([N+](=O)[O-])c(Br)c1[N+](=O)[O-],inactive: 0.0895%
22,CC(C)c1ccc(OP(C)(=O)Nc2ccc(SC(F)(F)F)cc2)cc1 (stereo not given),inactive: -0.173%

row,SMILES,activation
1,O=[N+]([O-])c1cc([N+](=O)[O-])c(Nc2ccc(Cl)cc2)c([N+](=O)[O-])c1,inactive: 0.324%
2,COc1ccc2c(c1O)-c1c(O)c(OC)cc3c1[C@H](C2)[N+](C)(C)CC3.O=[N+]([O-])c1cc([N+](=O)[O-])c([O-])c([N+](=O)[O-])c1[O-],inactive: 0.555%
3,O=C(OCCN1CCN(CCOCc2ccccc2)CC1)C(O)(c1ccccc1)c1ccccc1,inactive: -0.093%
4,O=C(OC1CN2CCC1CC2)c1ccc([N+](=O)[O-])cc1 (stereo not given),inactive: 0.071%
5,CP(=O)(Nc1ccc(SC(F)(F)F)cc1)Oc1ccc(F)cc1 (stereo not given),inactive: 0.369%
6,O=[N+]([O-])c1cc([N+](=O)[O-])c(C(F)(F)F)c([N+](=O)[O-])c1O,inactive: 0.021%
7,COc1ccc(NP(C)(=O)Oc2ccccc2OC)cc1 (stereo not given),inactive: 0.0665%
8,Cc1c(C(c2ccc3c(c2)OCO3)c2c(C)n(C)n(-c3ccccc3)c2=O)c(=O)n(-c2ccccc2)n1C.O=[N+]([O-])c1cc([N+](=O)[O-])c(O)c([N+](=O)[O-])c1,inactive: -0.0685%
9,Cc1cc(-c2cccc3ccccc23)c(C)cn1.O=[N+]([O-])c1cc([N+](=O)[O-])c(O)c([N+](=O)[O-])c1,inactive: 0.472%
10,O=[N+]([O-])c1cc([N+](=O)[O-])c(NCC2CCS(=O)(=O)C2)c([N+](=O)[O-])c1 (stereo not given),inactive: -0.15%
11,O=[N+]([O-])c1ccc(OP2(=O)COCCO2)cc1 (stereo not given),inactive: -0.019%
12,O=[N+]([O-])c1cc([N+](=O)[O-])c(Nc2nnnn2CCO)c([N+](=O)[O-])c1,inactive: 0.0105%
13,CCOC(=O)C(CC)C1=NC(C)(C)Cc2ccccc21.O=[N+]([O-])c1cc([N+](=O)[O-])c(O)c([N+](=O)[O-])c1 (stereo not given),inactive: -0.085%
14,CP(=O)(Nc1ccc(SC(F)(F)F)cc1)Oc1ccccc1 (stereo not given),inactive: 0.146%
15,CCCOc1ccc(NP(C)(=O)Oc2ccc(Cl)cc2)cc1 (stereo not given),inactive: 0.254%
16,COc1ccc(-c2ccccn2)cc1.O=[N+]([O-])c1cc([N+](=O)[O-])c(O)c([N+](=O)[O-])c1,inactive: -0.082%
17,CN1CCCCC1COC(=O)C1(O)c2ccccc2CCc2ccccc21 (stereo not given),inactive: -0.103%
18,CN(Cc1cccnc1)C(=O)COc1ccc(Cl)c(Cl)c1.O=[N+]([O-])c1cc([N+](=O)[O-])c(O)c([N+](=O)[O-])c1,inactive: 0.002%
19,O=[N+]([O-])c1cc([N+](=O)[O-])c(-n2nnc3ccccc32)c([N+](=O)[O-])c1,inactive: 0%
20,O=[N+]([O-])c1cc([N+](=O)[O-])c(-c2cnn(-c3ccccc3)c2)c([N+](=O)[O-])c1,inactive: -0.0435%
21,CCOC(=O)c1ccc(NP(C)(=O)Oc2cc(C)cc(C)c2)cc1 (stereo not given),inactive: 0.0575%
22,COc1ccccc1OP(C)(=O)Nc1cccc(Br)c1 (stereo not given),inactive: -0.16%

row,SMILES,activation
1,CP(=O)(Nc1cccc(Br)c1)Oc1ccccc1 (stereo not given),inactive: 0.391%
2,O=C(O)c1cccc(Nc2c([N+](=O)[O-])cc([N+](=O)[O-])cc2[N+](=O)[O-])c1,inactive: 3.82%
3,CC1=NCCc2c1[nH]c1ccccc21.O=[N+]([O-])c1cc([N+](=O)[O-])c(O)c([N+](=O)[O-])c1,inactive: 0.035%
4,CC(C)(C)c1ccc(OP(C)(=O)Nc2ccc(SC(F)(F)F)cc2)cc1 (stereo not given),inactive: -0.0895%
5,Cc1cccc(C)c1OP(C)(N)=O (stereo not given),inactive: 0.174%
6,O=[N+]([O-])c1ccc2c(c1)C=Nc1ccccc1O2,inactive: 0.295%
7,O=[N+]([O-])c1cc([N+](=O)[O-])c(Nc2cccnc2)c([N+](=O)[O-])c1,inactive: 0.0715%
8,COc1ccccc1OP(C)(=O)Nc1cc(Cl)ccc1C (stereo not given),inactive: 0.017%
9,Cc1cc(C)cc(OP(C)(N)=O)c1 (stereo not given),inactive: 0.005%
10,CCOC(=O)c1ccc(NP(C)(=O)Oc2ccccc2)cc1 (stereo not given),inactive: 0.13%
11,CCN(CC)CCCOC(=O)C(O)(c1ccccc1)c1ccccc1,inactive: 0.686%
12,COc1ccccc1-c1ccccn1.O=[N+]([O-])c1cc([N+](=O)[O-])c(O)c([N+](=O)[O-])c1,inactive: -0.0575%
13,CCc1ccc(OP(C)(=O)N2CCN(c3ccc([N+](=O)[O-])cc3)CC2)cc1 (stereo not given),inactive: -0.0325%
14,Cc1cc(C)cc(OP(C)(=O)Nc2ccc(SC(F)(F)F)cc2)c1 (stereo not given),inactive: 0.004%
15,CP(=O)(Nc1ccc(SC(F)(F)F)cc1)Oc1ccc(Cl)cc1 (stereo not given),inactive: -0.193%
16,Cc1cccc(C)c1OP(C)(=O)Nc1ccc(SC(F)(F)F)cc1 (stereo not given),inactive: 0.124%
17,CP(=O)(Oc1ccccc1)OC(c1ccccc1)C(F)(F)F (stereo not given),inactive: 0.0275%
18,O=[N+]([O-])c1cc([N+](=O)[O-])c(O)c([N+](=O)[O-])c1.c1ccc(Oc2ccncc2)cc1,inactive: 0.141%
19,CCOC(=O)c1ccc(NP(C)(=O)Oc2ccc(OC)cc2)cc1 (stereo not given),inactive: -0.091%
20,COc1ccccc1OP(C)(=O)Nc1ccccc1 (stereo not given),inactive: 0.766%
21,CP(=O)(Nc1ccccc1Br)Oc1ccccc1 (stereo not given),inactive: 0.0115%
